These results are taken from PubChem BioAssay AID799 (SRMLSC, 2007).

Molecules are shown by their SMILES. Only a part is listed here, and it is no random draw. Active and inactive are the calls of the source.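 Rule for the calls: active = viability gain under doxorubicin at or above a set limit, the compound median plus 3 SD (cut at about 4.7% in these data); inactive = the rest.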

This test can be described thus: protection of MRP-1-high cells against doxorubicin toxicity – H69AR cells, CellTiter-Glo, MRP-1 activator project, primary screen (AID 799).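 Note: MRP-1 overexpressing cells given doxorubicin 25 µM after compound pretreatment; 18-22 h compound pretreatment then 72 h with doxorubicin before readout; 0% = doxorubicin-only wells and 100% = vehicle-treated cells without doxorubicin.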 The conditions noted are these: viability rescue, at 10 µM, hits give high values. (ATP-based viability assays read luminescence as a measure of living cells.)
On to `CCC(=O)N1C2C3N(C(=O)CC)C1C1N(C(=O)CC)C(C(N1C(=O)CC)N3C(=O)CC)N2C(=O)CC`, for which the viability increase was inactive: 0.95%.
Consider `CC(=O)NC(SC(=S)N(CC(C)C)CC(C)C)C(Cl)(Cl)Cl` (stereo not drawn), for which the viability increase is inactive: -2.57%.
For `COC(=O)c1cc2c(s1)N=C(c1ccccc1)N(C)P2(=O)N1CCOCC1` (stereo not drawn) the value was inactive: -1.39%; for `CCOC(=O)NC(Sc1ccccc1)C(Cl)(Cl)Cl` (stereo not drawn), inactive: 1.76%; for `O=P1(Nc2nc3ccc(Cl)cc3s2)COc2ccccc2O1` (stereo not drawn), inactive: -1.14%.
Consider `O=P(Nc1nccs1)(c1ccccc1)c1ccccc1`, for which the viability increase was inactive: -0.33%.
As for `CC(C)C(=O)NC(Sc1ccccc1)C(Cl)(Cl)Cl` (stereo not drawn), the viability increase is inactive: -0.74%.
With `c1nnnn1CCn1cnnn1`, the viability increase is inactive: -0.66%.
Regarding `CC(=O)NC(SC(=S)N(C)C)C(Cl)(Cl)Cl` (stereo not drawn), the viability increase is inactive: -4.55%.
Take `O=C(OC1CN2CCC1CC2)c1cccc(Cl)c1` (stereo not drawn): the viability increase is inactive: -2.61%.
`C(Cc1nn[nH]n1)Cc1nn[nH]n1`: the viability increase was inactive: -0.15%.
As for `CC1CCN(C(=O)Oc2c(Cl)cc(Cl)c3cccnc23)CC1`, the viability increase was inactive: -1.96%.
Turning to `CN(C)C(=O)OCCc1n(C)cc[n+]1C`, the viability increase was inactive: -2.51%.
For the compound `CCc1nc2c(n1)c1c(non1O)c1c2no[n+]1[O-]`, the viability increase was inactive: -4.83%.
As for `CC(=O)N1C2C3N(C(C)=O)C1C1N(C(C)=O)C(C(N1C(C)=O)N3C(C)=O)N2C(C)=O`, the viability increase is inactive: -0.17%.
For the compound `O=[N+]([O-])c1cccc2n[nH]nc12`, the viability increase was inactive: 0.55%.
For `O=C(NC(Sc1ccncn1)C(Cl)(Cl)Cl)c1ccccc1` (stereo not drawn) the value was inactive: -1.74%; for `Cc1c2non([O-])c-2c(C)[n+](=O)[n+]1[O-]`, inactive: -6.19%; for `Oc1ccccc1CNc1ccccn1`, inactive: -1.9%.
For `CC(C)CC(=O)NC(Sc1ccc(Cl)cc1)C(Cl)(Cl)Cl` (stereo not drawn) the value was inactive: -0.28%.
Regarding `CN1CCCC(OC(=O)C(c2ccccc2)c2ccccc2)C1` (stereo not drawn), the viability increase is inactive: -2.51%.
On to `CCN(N=Nc1nonc1N)c1nonc1N`, for which the viability increase was inactive: 0%.
In the case of `Cc1cc(SC(NC(=O)c2ccc(F)cc2)C(Cl)(Cl)Cl)ncn1` (stereo not drawn), the viability increase was inactive: 1.5%.
For the compound `CCOP(=O)(Nc1ccccc1)OCC`, the viability increase was inactive: 0%.
Consider `ClCCSc1nnc(-c2cccnc2)o1`, for which the viability increase was inactive: -1.56%.
For `O=[N+]([O-])c1cc([N+](=O)[O-])c(-c2ccn[nH]2)s1`, the viability increase was inactive: -4.5%.
For `CCN(CC)C(=S)SC(NC=O)C(Cl)(Cl)Cl` (stereo not drawn) the value was inactive: -5.61%; for `Cc1ccc2nc3c(c(C)c2c1)CC(C(Cl)Cl)S3` (stereo not drawn), inactive: 0.36%.
Regarding `Cc1c2c(nc3ccccc13)SC(C(Cl)Cl)C2` (stereo not drawn), the viability increase was inactive: 1.21%.
For `O=C(OC1CN2CCC1CC2)C12CC3CC(CC(C3)C1)C2` (stereo not drawn) the value was inactive: -0.75%; for `CCC(C)N(CC(C)C)C(=S)SC(NC(C)=O)C(Cl)(Cl)Cl` (stereo not drawn), inactive: 0.31%; for `COP1(=S)c2c(C)nn(CCC#N)c2N=C(c2ccc(F)cc2)N1C` (stereo not drawn), inactive: -1.6%.
As for `O=C(COc1ccccc1)OC1CN2CCC1CC2` (stereo not drawn), the viability increase was inactive: -2.36%.
Consider `Cc1cc(SC(NC(=O)c2ccccc2)C(Cl)(Cl)Cl)nc(C(C)C)n1` (stereo not drawn), for which the viability increase was inactive: -2.12%.
Regarding `O=P1(Nc2ncccn2)COc2ccccc2OC1`, the viability increase is inactive: -0.53%.
As for `Cc1ccc(OCC(=O)OC2CN3CCC2CC3)cc1` (stereo not drawn), the viability increase was inactive: 0.11%.
For `O=P1(Nc2ccc(Br)cn2)COc2ccccc2OC1`, the viability increase is inactive: 0.05%.
As for `Cc1nn(-c2ccccc2)c2c1P(=O)(N1CCOCC1)N(C)C(c1ccccc1)=N2` (stereo not drawn), the viability increase was inactive: -2.81%.
For `O=P1(Nc2ccccn2)COc2ccccc2OC1`, the viability increase is inactive: -1.21%.
Regarding `Clc1n[nH]nc1-c1nn[nH][15n]1`, the viability increase is inactive: 1.13%.
On to `Cc1ccc(NCCc2c([N+](=O)[O-])cc([N+](=O)[O-])cc2[N+](=O)[O-])cc1`, for which the viability increase is inactive: -3.64%.
Consider `CCOP(=O)(Nc1cccc2ccccc12)OCC`, for which the viability increase was inactive: -1.61%.
Consider `COc1cc(C2NCCC3(OCCO3)C2(C)C)cc(OC)c1OC` (stereo not drawn), for which the viability increase was inactive: -2.84%.
`Cc1cccc(OCC(=O)OC2CN3CCC2CC3)c1` (stereo not drawn): the viability increase was inactive: -3.51%.
With `CCOP1(=S)c2c(C)nn(CCC#N)c2N=C(c2ccc(F)cc2)N1C` (stereo not drawn), the viability increase was inactive: -1.43%.
Regarding `O=[N+]([O-])c1ccc2c(c1)nnn2O`, the viability increase is inactive: 0.22%.
Regarding `O=P(Nc1nccs1)(c1ccccc1)c1nc2ccccc2s1` (stereo not drawn), the viability increase was inactive: -0.35%.
On to `CCOP1(=S)c2c(C)nn(CCC#N)c2N=C(c2ccccc2F)N1C` (stereo not drawn), for which the viability increase was inactive: -0.64%.
